Test results from patent publication US5180831A (priority 1990, dated 1993).

Assay: Adjunct efficacy test (reactivator with 2-PAM) against GD in mice
Details: 3a plus 2-PAM, Soman

For C[n+]1cccc(O)c1C=NNC(N)=O.[Cl-] [Compound 3a, 2-[[(Aminocarbonyl)hydrazono]methyl]-3-hydroxy-1-methyl pyridinium chloride], the “efficacy compared with HI-6” value was “more effective than HI-6”.
